Measured values from patent US8524716B2, “Macrocyclic indoles as hepatitis C virus inhibitors” (priority 2007, dated 2013).

Protein sequences, listed by entry. Tags and fused reporters are not part of them. Residues count along the entry.
UniProt O92972, 2420-3010 limits assumed: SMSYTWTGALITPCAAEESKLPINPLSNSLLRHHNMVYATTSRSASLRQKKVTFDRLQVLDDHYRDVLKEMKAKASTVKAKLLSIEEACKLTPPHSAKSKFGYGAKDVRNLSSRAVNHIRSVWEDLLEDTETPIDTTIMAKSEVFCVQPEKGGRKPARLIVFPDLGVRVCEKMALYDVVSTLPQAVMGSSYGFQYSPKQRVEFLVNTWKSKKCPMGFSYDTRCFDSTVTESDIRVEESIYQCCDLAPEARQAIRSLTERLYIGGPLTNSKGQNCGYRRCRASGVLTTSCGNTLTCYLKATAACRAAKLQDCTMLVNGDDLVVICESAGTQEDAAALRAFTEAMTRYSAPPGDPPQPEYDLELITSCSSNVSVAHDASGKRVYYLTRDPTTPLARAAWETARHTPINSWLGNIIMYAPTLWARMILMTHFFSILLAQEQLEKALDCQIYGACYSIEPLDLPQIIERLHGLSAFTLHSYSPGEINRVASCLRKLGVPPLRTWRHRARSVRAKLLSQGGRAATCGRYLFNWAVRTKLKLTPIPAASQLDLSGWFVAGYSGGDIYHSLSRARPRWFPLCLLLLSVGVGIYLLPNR

Molecular target: HCV NS5B (Hepatitis C virus genotype 1b (strain HC-J4), UniProt O92972)
Type: biochemical
Details: 100 nM enzyme, [3H]GTP incorporation, 2 h at 25° C.; read-out: IC50 (μM) Enzymatic assay
Method: The cDNA encoding NS5B amino acid 1-570 (HC-J4, genotype 1b, pCV-J4L6S, genebank accession number AF054247) was subcloned into the Nhe I and Xho I restriction sites of pET-21b. Expression of the subsequent His-tagged C-terminal 21 amino acid deleted NS5B was performed as follows:
The NS5B expression construct was transformed into E. coli BL21(DE3) (Novagen, Madison, Wis.). Five milliliters of LB-medium supplemented with ampicillin (50 μg/mL) was inoculated with one colony. When the pre-culture reached an optical density of 0.6 measured at 600 nm, it was transferred to fresh LB-medium supplemented with ampicillin, at a ratio of 1:200. Cells were grown to an optical density at 600 nm of 0.6, after which the expression cultures were shifted to a growth temperature of 20° C. following induction with isopropyl-1-thio-β-D-galactopyranoside and MgCl2 at a final concentration of 0.4 mM and 10 μM, respectively. […]
Clarified cell lysate was thawed and subsequently loaded onto a 5 mL pre-packed HisTrap FF column equilibrated with 25 mM HEPES, pH 7.5, 500 mM NaCl, 10% glycerol and 5 mM DTT. […] Protein purity was assessed on Nu-PAGE pre-cast gels (Invitrogen, Carlsbad, Calif.). Purified NS5B samples were concentrated using Centri-Prep concentrators (Millipore, Billerica, Mass., USA) and protein concentrations were determined by Bradford assay (Pierce, Rockford, Ill., USA). […]

Row | Molecule | IC50 [µM]
1 | 17-Cyclohexyl-18-furan-3-yl-9-methyl-10,10-dioxo-10λ^6-thia-1,4,9,11-tetraaza-tricyclo[11.5.2.016,19]icosa-13(20),14,16(19),17-tetraene-3,12-dione [Cpd 28] | 0.11
2 | CN1CCCCCNC(=O)Cn2c(-c3ccoc3)c(C3CCCCC3)c3ccc(cc32)C(=O)NS1(=O)=O [Cpd 30, 18-Cyclohexyl-19-furan-3-yl-10-methyl-11,11-dioxo-11λ^6-thia-1,4,10,12-tetraaza-tricyclo[12.5.2.017,20]henicosa-14(21),15,17(20),18-tetraene-3,13-dione] | 0.11
